The values that follow are results of earlier work, collected in US20120283096A1, “AGENT FOR IMPROVING PLANT GROWTH, SEEDS, AND METHOD FOR IMPROVING PLANT GROWTH” (Incorporated Administrative Agency National Agricu lture …, priority 2010, published 2012).

Where two headings read alike, the source gives them in different places.

For this series the following is noted: in water, powder, cited from earlier work.

`[Ca+2].[O]=[Mo](=[O])([O-])[O-]` [Calcium molybdate]: the Water solubility entry is given as “Slightly soluble (has a percentage of solubility of 10% by weight or lower with respect to water)”. Besides, the Water solubility entry (listed as calcium molybdate) is reported as “slightly soluble”.
